Our source for the outcome values is PubChem BioAssay AID2550 (Johns Hopkins Ion Channel Center, 2010).

Chains of the proteins cited; added tags and fusions are not shown.
UniProt Q61143, whole entry: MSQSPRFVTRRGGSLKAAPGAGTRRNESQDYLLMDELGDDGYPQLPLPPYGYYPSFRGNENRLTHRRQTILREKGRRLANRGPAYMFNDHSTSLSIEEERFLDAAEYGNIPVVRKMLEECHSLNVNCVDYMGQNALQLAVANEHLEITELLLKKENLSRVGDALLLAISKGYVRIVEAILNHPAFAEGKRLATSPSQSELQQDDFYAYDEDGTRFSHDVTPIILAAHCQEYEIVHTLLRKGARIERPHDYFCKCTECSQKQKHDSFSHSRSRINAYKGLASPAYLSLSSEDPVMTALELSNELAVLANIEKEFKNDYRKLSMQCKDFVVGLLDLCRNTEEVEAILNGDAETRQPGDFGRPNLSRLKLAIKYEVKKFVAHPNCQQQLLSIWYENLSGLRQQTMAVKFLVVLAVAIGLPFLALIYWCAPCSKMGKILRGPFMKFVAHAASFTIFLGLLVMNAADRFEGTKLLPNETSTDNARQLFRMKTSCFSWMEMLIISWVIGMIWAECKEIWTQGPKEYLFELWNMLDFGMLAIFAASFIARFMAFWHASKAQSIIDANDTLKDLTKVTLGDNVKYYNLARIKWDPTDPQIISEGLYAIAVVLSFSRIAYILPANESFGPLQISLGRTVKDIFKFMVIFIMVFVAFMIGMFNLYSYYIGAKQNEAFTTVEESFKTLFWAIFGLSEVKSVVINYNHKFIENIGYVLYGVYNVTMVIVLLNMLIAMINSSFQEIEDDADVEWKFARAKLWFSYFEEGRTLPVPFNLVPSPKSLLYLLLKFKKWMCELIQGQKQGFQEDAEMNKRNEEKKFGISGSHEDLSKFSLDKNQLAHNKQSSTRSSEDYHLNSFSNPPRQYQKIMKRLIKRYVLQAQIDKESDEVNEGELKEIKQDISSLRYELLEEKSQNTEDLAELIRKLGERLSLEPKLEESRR

SMILES strings stand for the structures. The list shows a part of the results, in another mix than the full data. Some salts and complexes are drawn in separate pieces, as the source files them; their charges need not balance. Calls of active or inactive are those of the source.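 Rule for the calls: active = B-score of the integrated fluorescence ratio above library mean plus 3 SD, and starting fluorescence ratio within library mean plus 5 SD; inactive = the rest.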

The target of this experiment is Short transient receptor potential channel 6 (Mus musculus) (UniProt Q61143). The experiment in a line: mouse TRPC6 channel activators, primary screen, cell-based, HEK293, membrane potential dye (AID 2550).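 Note: higher score means more depolarization so channel activation.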 To be noted: HEK293-TRPC6 membrane potential dye fluorescence; at 10 µM.
`CCOc1ccc(C2=NCC(CBr)S2)cc1` (configuration not stated): the call was inactive.
Consider `O=P1(Nc2nc3ccc(Cl)cc3s2)COc2ccccc2O1` (configuration not stated), for which the call was inactive.
As to `CC(C)c1ccc(OP(C)(=O)Nc2ccc(SC(F)(F)F)cc2)cc1` (configuration not stated), the outcome was inactive.
Turning to `CC(C)(C)C(=O)NC(Sc1ccccc1)C(Cl)(Cl)Cl` (configuration not stated), the compound was called inactive.
Consider `CP(=O)(Nc1ccccc1F)Oc1ccccc1` (configuration not stated), for which the compound was called inactive.
For `C[C@H]1OP(=O)(Oc2ccccc2)C[C@@H]2O[C@@H]21` (some centres not stated) the value was “inactive”; for `C[C@@H]1C=CCP(=O)(Oc2ccccc2)O1` (some centres not stated), “inactive”; for `O=C(OCCN1CCN(CCOCc2ccccc2)CC1)C(O)(c1ccccc1)c1ccccc1`, “inactive”.
Regarding `O=C(OC1CN2CCC1CC2)c1ccc([N+](=O)[O-])cc1` (configuration not stated), the outcome was inactive.
For `CC(=O)c1ccc(N2CC2c2ccncc2)cc1` (configuration not stated), the outcome was inactive.
Consider `CC(=O)Nc1ccc(Oc2c([N+](=O)[O-])cc([N+](=O)[O-])cc2[N+](=O)[O-])cc1`, for which the result was inactive.
In the case of `CC(=O)Nc1ccc([As](=O)(O)O)c(O)c1`, the compound was called inactive.
As for `COc1ccc2c(c1O)-c1c(O)c(OC)cc3c1[C@H](C2)[N+](C)(C)CC3.O=[N+]([O-])c1cc([N+](=O)[O-])c([O-])c([N+](=O)[O-])c1[O-]`, the outcome was inactive.
As for `Cc1ccc(NP(=O)(Oc2cccc(C)c2)Oc2cccc(C)c2)nc1`, the compound was called inactive.
To `CCOC(=O)NC(Sc1ccccc1)C(Cl)(Cl)Cl` (configuration not stated) belongs “inactive”; to `c1ccc(-c2nn[nH]n2)c(-c2nn[nH]n2)c1`, “inactive”.
Regarding `O=C(NC1CCS(=O)(=O)C1)NP(=S)(Oc1ccccc1)Oc1ccccc1` (configuration not stated), the compound was called inactive.
Turning to `CCNC(=S)/N=C(\N)N[N+](=O)[O-]`, the outcome was inactive.
`COc1ccc(OP(C)(=O)Nc2ccc(SC(F)(F)F)cc2)cc1` (configuration not stated): the compound was called inactive.
As for `CCOC(=O)c1ccc(NP(C)(=O)Oc2ccc(F)cc2)cc1` (configuration not stated), the compound was classed as inactive.
With `CCC(=O)N1C2C3N(C(=O)CC)C1C1N(C(=O)CC)C(C(N1C(=O)CC)N3C(=O)CC)N2C(=O)CC`, the call was inactive.
`CCN(CC)CCCOC(=O)C(O)(c1ccccc1)C1CCCCC1` (configuration not stated): the compound was called inactive.
For the compound `O=C(OC1CN2CCC1CC2)c1ccccc1` (configuration not stated), the result was inactive.
Consider `CC(=O)NC(SC(=S)N(CC(C)C)CC(C)C)C(Cl)(Cl)Cl` (configuration not stated), for which the call was inactive.
Consider `Cc1ccc(OP(=O)(Nc2ccccn2)Oc2ccc(C)cc2)cc1`, for which the compound was classed as inactive.
As to `COC(=O)c1cc2c(s1)N=C(c1ccccc1)N(C)P2(=O)N1CCOCC1` (configuration not stated), the compound was called inactive.
As for `CCCCCOc1ccc(NP(C)(=O)Oc2ccc(Cl)cc2Cl)cc1` (configuration not stated), the call was inactive.
For the compound `O=[N+]([O-])c1cc([N+](=O)[O-])c(OC2CCCCC2O)c([N+](=O)[O-])c1` (configuration not stated), the compound was classed as inactive.
For `CN(C)C(=O)Oc1noc2ccccc12`, the result was inactive.
With `Cc1ccccc1OP(=O)(Nc1ccccn1)Oc1ccccc1C`, the result was inactive.
For `CP(=O)(Nc1ccccc1)Oc1ccc(F)cc1` (configuration not stated) the value was “inactive”; for `CN(C)C1(CNC(=O)c2ccc(Cl)c(S(N)(=O)=O)c2)CCCCC1`, “inactive”.
As for `O=P(Nc1ccccn1)(c1ccc(Br)cc1)c1ccc(Br)cc1`, the call was inactive.
On to `COc1ccc(OP(C)(=O)Nc2cccc(Br)c2)cc1` (configuration not stated), for which the call was inactive.
To `COc1ccc(NP(C)(=O)Oc2ccccc2OC)cc1` (configuration not stated) belongs “inactive”; to `C[C@H]1OP(=O)(Oc2ccccc2)[C@H](O)[C@H](O)[C@H]1N=[N+]=[N-]` (some centres not stated), “inactive”; to `O=P(Nc1nc2ccccc2s1)(c1ccccc1)c1ccccc1`, “inactive”.
Regarding `CN(C)CCOC(=O)C(O)(c1ccccc1)C1CCCCC1` (configuration not stated), the outcome was inactive.
Consider `Cc1cc(-c2cccc3ccccc23)c(C)cn1.O=[N+]([O-])c1cc([N+](=O)[O-])c(O)c([N+](=O)[O-])c1`, for which the call was inactive.
Consider `O=[N+]([O-])c1cc([N+](=O)[O-])c(NCC2CCS(=O)(=O)C2)c([N+](=O)[O-])c1` (configuration not stated), for which the outcome was inactive.
With `O=[As](O)(c1ccccc1)c1ccc(O)cc1`, the result was inactive.
Regarding `CC(=O)NC(SC(=S)N(C)C)C(Cl)(Cl)Cl` (configuration not stated), the call was inactive.
With `O=[N+]([O-])c1ccc(OP2(=O)COCCO2)cc1` (configuration not stated), the compound was classed as inactive.
Take `O=[N+]([O-])c1ncn(CCn2cnc([N+](=O)[O-])n2)n1`: the result was inactive.
For the compound `O=[N+]([O-])c1ccc(O)c(/C=N/Nc2ccc([N+](=O)[O-])cc2[N+](=O)[O-])c1`, the result was inactive.
On to `O=C(OC1CN2CCC1CC2)c1cccc(Cl)c1` (configuration not stated), for which the compound was called inactive.
Turning to `C(Cc1nn[nH]n1)Cc1nn[nH]n1`, the compound was classed as inactive.
Take `Nc1ccc([As](=O)(O)c2ccc([N+](=O)[O-])cc2)cc1`: the compound was called inactive.
`O=P(Nc1nccs1)(c1ccccc1)c1ccccc1`: the outcome was inactive.
Consider `CC(C)C(=O)NC(Sc1ccccc1)C(Cl)(Cl)Cl` (configuration not stated), for which the compound was classed as inactive.
With `CP(=O)(Nc1ccc(SC(F)(F)F)cc1)Oc1ccc(F)cc1` (configuration not stated), the call was inactive.
As for `c1nnnn1CCn1cnnn1`, the outcome was inactive.
To `CCOP(C)(=S)SCC(=O)NC(C)(CC)C(=O)O` (configuration not stated) belongs “inactive”; to `CP(=O)(Nc1ccc2c(c1)OCCO2)Oc1ccccc1` (configuration not stated), “inactive”.
To `COc1ccc(OP(C)(=O)Nc2ccc(Br)cc2)cc1` (configuration not stated) belongs “inactive”; to `COc1ccc(C2=NCC(CBr)S2)cc1` (configuration not stated), “inactive”; to `CCN(CC)CC(O)COC(=O)C(O)(c1ccccc1)C1CCCCC1` (configuration not stated), “inactive”.
As for `CCc1ccc(OP(C)(=O)Nc2cccnc2)cc1` (configuration not stated), the compound was called inactive.
For `O=[N+]([O-])c1cc([N+](=O)[O-])c(CCNc2ccccc2)c([N+](=O)[O-])c1`, the compound was called inactive.
With `CCc1nc2c(n1)c1c(non1O)c1c2no[n+]1[O-]`, the compound was called inactive.
`CP(=O)(Oc1ccccc1)N1CCOC1=O` (configuration not stated): the outcome was inactive.
For `Cc1ccc(NP(=O)(Oc2ccccc2)Oc2ccccc2)nc1` the value was “inactive”.
To `O=C(OCCCN1CCCC1)C(O)(c1ccccc1)C1CCCCC1` (configuration not stated) belongs “inactive”; to `CC(=O)N1C2C3N(C(C)=O)C1C1N(C(C)=O)C(C(N1C(C)=O)N3C(C)=O)N2C(C)=O`, “inactive”; to `O=[N+]([O-])c1cccc2n[nH]nc12`, “inactive”.
To `COc1ccccc1OP(C)(=O)Nc1c(C)n(C)n(-c2ccccc2)c1=O` (configuration not stated) belongs “inactive”.
For the compound `CP(=O)(Nc1ccc(Cl)cc1)Oc1ccc(F)cc1` (configuration not stated), the outcome was inactive.
Take `CCN(/C(=N/P(=O)(N1CCOCC1)N1CCOCC1)N1CCOCC1)c1ccc(OC)cc1`: the compound was called inactive.
Take `C[N+]1=C2C=CC=CC=C2SC12C([N+](=O)[O-])=CC([N+](=O)[O-])=C[C-]2[N+](=O)[O-]` (configuration not stated): the result was inactive.
For `COc1ccccc1OP(C)(=O)Nc1ccccc1Br` (configuration not stated) the value was “inactive”.
For `Nc1ccc([As](=O)(O)c2ccc(N)cc2)cc1`, the outcome was inactive.
For `CC(C)(C)c1ccc(OP(C)(=O)O)cc1` the value was “inactive”.
